We go through one molecule from paper PMC11513893, “Discovery of Oral Degraders of the ROS1 Fusion Protein with Potent Activity against Secondary Resistance Mutations” (Journal of Medicinal Chemistry, 2024).

The subject of assay [1] is Ba/F3 CD74-ROS1 non mutant. In words: Antiproliferation assay (Alamar Blue, 72 h). The assay is classed as cell-based. To be noted: Mus musculus, BaF3, 72 h, Ba/F3 cells, cell growth inhibition. An excerpt: (§1) To assess targeted degradation of ROS1 fusion proteins, we first established a mouse pro-B cell line Ba/F3 as a model expressing the CD74-ROS1 oncogene or CD74-ROS1 with clinically observed secondary/tertiary mutations. The Ba/F3 cell line is dependent on interleukin-3 for survival and proliferation. Upon transduction of oncogenic ROS1, Ba/F3 cells become independent of interleukin-3 but dependent on the transduced driver gene.
(§2) Ba/F3 immortalized murine bone marrow–derived pro-B cells were obtained from Creative Biogene (Shirley, NY) and cultured in RPMI supplemented with 10% FBS and IL3 (0.5 ng/mL). Ba/F3 cells expressing ROS1 variants were maintained in RPMI supplemented with 10% FBS and puromycin (0.7 mg/mL). […] Each compound was dissolved in DMSO and serially diluted in RPMI for cell culture experiments.
(§3) To assess the 72 h effect of drug treatment on cell proliferation, 2000 to 3000 cells were plated in replicates of three in 96-well plates. The plates were placed in an incubator at 37 °C, 5% CO2 for 72 h. Following drug treatments, the cells were incubated with the Alamar Blue Assay reagent (BioRad), 5 μL each well for 4 h at 37 °C and 5% CO2. Luminescence was measured on a multiplate reader and analyzed. […] IC50 values were determined using a nonlinear regression model with a sigmoidal dose response in GraphPad. […]

The test system of assay [2] is Ba/F3 ROS1 L2026M. The experiment in a line: Antiproliferation assay. The assay is classed as cell-based. To be noted: Mus musculus, BaF3; Ba/F3 cells, cell growth inhibition.
From the text: as §1, §2, §3

Molecules are shown by their SMILES.

`C[C@@H](Oc1cc(-c2cnn(C3CCNCC3)c2)cnc1N)c1c(Cl)ccc(F)c1Cl` [crizotinib]: the IC50 in assay [1] was 16 ± 3.5 nM; in assay [2] it was 77 ± 9 nM.
